{"source": "patent US20150238444A1", "about": "“CHLORHEXIDINE GLUCONATE SOLUBILIZED IN A HYDROPHOBIC MONOACYLGLYCERIDE” (3M INNOVATIVE PROPERTIES COMPANY, priority 2012, published 2015)", "assay": "Screening of CHG solubility in hydrophobic vehicles after vacuum-stripping water", "assay_type": "physicochemical", "procedure": "General Method for Vacuum-Stripping Water from CHG Solutions. A 25 g sample of CHG/water solution (20 wt. CHG) was added to 45 g of the hydrophobic monoacylglyceride of interest in a 200 mL round bottom flask. The flask was put in a 60° C. oil bath and stirred with a magnetic stir bar. Vacuum (less than 3.3 kilopascal (25 Torr)) was pulled until bubbling stopped and the weight had closely approached the theoretical value of 50 grams—usually 30-90 minutes. […] In those cases, after nearly all the water was removed, additional hydrophobic monoacylglyceride was added to bring the final weight to 50 grams.\nScreening tests were conducted to determine the solubility of CHG in a variety of hydrophobic vehicles. Samples were prepared by mixing CHG (20 wt. % solution in water, obtained from Xttrium Laboratories Inc., Chicago, Ill.) with the vehicle and vacuum stripping in accordance with the General Method for Vacuum-Stripping Water from CHG Solutions. The resulting concentration of CHG and residual water were determined. Also, the final state of the solution was qualitatively evaluated to determine whether the mixture was transparent and apparently homogenous, or clearly inhomogeneous."}
{"substance": "Dialkyl (C12 & C13) Tartrate", "values": [{"measurement": "Experimental Solubility with CHG", "result": "No"}, {"measurement": "Final State", "setting": "CHG 10 wt. %, 23-50° C.", "result": "Inhomogeneous"}, {"measurement": "CHG wt. % (resulting concentration of CHG in the vehicle)", "setting": "after vacuum stripping of water from CHG/vehicle mixture", "result": 10, "unit": "% wt. %"}]}
